Source: patent US11104735B2, “Inhibition of cytokine-induced SH2 protein in NK cells” (The Walter and Eliza Hall Institute of Medical Research, priority 2015, dated 2021)

The chains behind the UniProt entries cited, without tags or fusion partners. Residues count along the entry.
UniProt P23458, 875-1153 limits assumed: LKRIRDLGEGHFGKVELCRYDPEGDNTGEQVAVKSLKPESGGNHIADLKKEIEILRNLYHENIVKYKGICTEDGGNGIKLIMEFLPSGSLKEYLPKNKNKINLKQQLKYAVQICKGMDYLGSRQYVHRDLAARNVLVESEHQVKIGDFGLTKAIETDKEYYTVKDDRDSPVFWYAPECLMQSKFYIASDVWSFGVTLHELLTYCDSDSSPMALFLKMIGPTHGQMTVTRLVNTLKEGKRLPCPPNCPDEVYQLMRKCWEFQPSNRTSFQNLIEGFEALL

Target: JAK1 (Homo sapiens, UniProt P23458)
Test: In vitro kinase inhibition assay, JAK1 kinase domain (JH1) with STAT5b substrate peptide
Assay type: biochemical
Conditions: JAK1 JH1, in vitro kinase reaction; unit inferred
Procedure: Protein kinase assays, including high throughput kinase assays are known in the art as described in, e.g., in Babon et al. (2013) and Von Ahsen et al. (2005). In one exemplary embodiment 130 μM STAT5b peptide (SEQ ID NO:18 RRAKAADGYVKPQIKQVV) is incubated with 5 nM human JAK1 (see SEQ ID NO:11 for corresponding amino acid sequence) at 25° C. for 30-60 min in 20 mM Tris pH 8.0, 100 mM NaCl, 5 mM 2-mercaptoethanol, 0.2 mg ml^−1 bovine serum albumin, 2 mM MgCl2, 100 μM ATP and 1 μCi γ-[^32P]ATP. Recombinant trimeric complex CIS-SH2-Elongin B-Elongin C (see SEQ ID NOs:7, 14, and 15 for the corresponding amino acid sequences) is present at concentrations ranging from 0-30 μM. After incubation, the reaction is spotted onto P81 phosphocellulose paper and quenched in 5% H3PO4. The paper is then washed (4×200 ml, 15 min) with 5% H3PO4 and exposed to a phosphorimager plate. Quantitation is performed using phosphorimager software and IC50 curves are then calculated based on integrated pixel counts.
Kinase inhibition assays were performed essentially as described (Babon et al., 2012). […] Quantitation was performed using Fuji software and IC50 curves calculated using Graphpad Prism.

- IC50: ~96.8 µM
B1: CIS-ΔN34: human CIS lacking the N-terminal 34 residues, in complex with elongins B and C (protein, UniProt Q9NSE2 35-258, looked up, fragment)
chain: QPLPAGAFLEEVAEGTPAQTESEPKVLDPEEDLLCIAKTFSYLRESGWYWGSITASEARQHLQKMPEGTFLVRDSTHPSYLFTLSVKTTRGPTNVRIEYADSSFRLDSNCLSRPRILAFPDVVSLVQHYVASCTADTRSDSPDPAPTPALPMPKEDAPSDPALPAPPPATAVHLKLVQPFVRRSSARSLQHLCRLVINRLVADVDCLPLPRRMADYLRQYPFQL
modifications: complex with elongins B and C
notes: human CIS lacking the N-terminal 34 residues, in complex with elongins B and C
